Measurements published in PubChem BioAssay (Tox21).
Values joined by “and” are separate entries in the source; they are usually repeats but may differ in a detail not shown here. Equal values may be shown once. Only a part is listed here, and it is no random draw. Results filed as inconclusive are left out. Some compounds were tested as several samples or in several runs, with calls that do not always agree. Active and inactive are the calls of the source. Unless noted, calls come from the whole dose curve; as a rule, active = well fitted curve in the direction sought with a large enough effect in the repeat runs; inconclusive = weak or mixed curves; inactive = no such curve, though single readings can be large; an effect the other way counts as inactive or inconclusive.

The chains behind the UniProt entries cited, without tags or fusion partners.
UniProt P08659, whole entry: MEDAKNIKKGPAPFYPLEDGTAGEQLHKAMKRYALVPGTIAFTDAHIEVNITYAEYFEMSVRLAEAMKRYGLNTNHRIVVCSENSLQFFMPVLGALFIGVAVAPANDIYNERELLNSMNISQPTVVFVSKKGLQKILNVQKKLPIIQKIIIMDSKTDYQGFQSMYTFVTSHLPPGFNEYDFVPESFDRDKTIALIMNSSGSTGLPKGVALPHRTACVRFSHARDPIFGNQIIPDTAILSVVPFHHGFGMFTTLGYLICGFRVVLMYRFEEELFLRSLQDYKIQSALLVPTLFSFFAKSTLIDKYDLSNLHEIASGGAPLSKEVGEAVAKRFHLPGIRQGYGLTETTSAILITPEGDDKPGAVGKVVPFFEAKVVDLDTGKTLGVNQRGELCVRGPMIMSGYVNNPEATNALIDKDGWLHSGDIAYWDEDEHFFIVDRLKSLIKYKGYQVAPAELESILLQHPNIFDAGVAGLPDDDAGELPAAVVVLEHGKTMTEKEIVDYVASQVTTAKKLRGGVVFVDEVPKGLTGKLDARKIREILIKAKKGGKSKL
UniProt Q14994, whole entry: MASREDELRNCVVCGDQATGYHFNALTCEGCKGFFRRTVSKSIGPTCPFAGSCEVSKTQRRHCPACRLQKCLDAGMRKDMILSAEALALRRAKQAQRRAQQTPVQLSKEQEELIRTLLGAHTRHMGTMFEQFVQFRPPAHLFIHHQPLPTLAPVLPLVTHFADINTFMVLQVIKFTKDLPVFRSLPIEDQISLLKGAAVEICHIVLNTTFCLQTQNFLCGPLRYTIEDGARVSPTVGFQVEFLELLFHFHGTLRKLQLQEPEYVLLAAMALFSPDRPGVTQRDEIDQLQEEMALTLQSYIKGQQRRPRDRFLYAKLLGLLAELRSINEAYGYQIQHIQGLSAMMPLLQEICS

How the values were obtained:
[1] = qHTS assay to identify small molecule agonists of the retinoic acid receptor (RAR) signaling pathway (AID 1159553); settings: C3RL4 RARE luciferase reporter, agonist, 6 h
Method in brief: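 Seed C3RL4 reporter cells at 1,000 per well and incubate overnight at 37 C. Add compounds in DMSO, incubate 6 hr. Add luciferase reagent, wait 30 min at room temperature, read luminescence.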

[2] = qHTS assay to identify small molecule antagonists of the estrogen related receptor (ERR) signaling pathway from Tox21 library - cell viability counter screen (AID 1224834); settings: ERR reporter cells viability, CellTiter-Fluor, 17.5 h; at 92.4 µM (top of the series) unless noted; note: nearly all actives have a fitted effect of over 30% in size
Description: National Center for Advancing Translational Sciences [NCATS]
NIH Chemical Genomics Center [NCGC]
U.S. Environmental Protection Agency [EPA]
National Institutes of Environmental Health Sciences [NIEHS]
National Toxicology Program [NTP]
U.S. Food and Drug Administration [FDA]
Estrogen related receptors (ERRs), the first orphan nuclear receptors discovered, play an important role in the control of cellular energy metabolism. ERRs are required for high-energy production in response to the environmental challenges. ERR-alpha was also identified as an adverse marker for breast cancer progression; ERR-alpha-positive tumors have a poor prognosis. To screen and to identify environmental compounds that perturb the ERR signaling pathways could provide valuable information for potential therapeutic or preventive measures in the treatment of metabolic disease. To differentiate true ERR antagonists or agonist from cytotoxic substances, the assay is multiplexed with cell viability assay.
Tox21 Assay Protocol Summary:
The ERR cells were dispensed at 2,000 cells/5 ul/well in 1536-well white plates using a Multidrop dispenser. After the assay plates were incubated at a 37 C/5% CO2 incubator for 6 hours, 23 nL of compounds dissolved in DMSO, positive and negative controls or DMSO only was transferred to the assay plate by a pin tool. The plates were incubated at 37 C for 17.5 hours. 1 ul/well of CellTiter-Fluor reagent was added into the assay plates using a Flying Reagent Dispenser. After 30-minute incubation at 37 C/5% CO2, the fluorescence intensity in the plates was measured using a ViewLux plate reader.

[3] = target: Luciferin 4-monooxygenase (Photinus pyralis) (UniProt P08659); assay: qHTS assay to identify small molecule inhibitors of firefly luciferase (AID 1224835); note: nearly all actives have a fitted effect of over 25% in size; settings: purified P. pyralis luciferase, luminescence inhibition; at 115 µM (top of the series) unless noted
Method in brief: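 Inhibition of purified Photinus luciferase is measured by luminescence. Substrate levels (D-luciferin, ATP) sit at their KM values. Each compound is tested in a concentration series.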

[4] = qHTS assay to identify small molecule agonists of the constitutive androstane receptor (CAR) signaling pathway - cell viability counter screen (AID 1224836); settings: HepG2-CYP2B6-hCAR viability, CellTiter-Fluor, 23 h, PK11195 added to every well; at 92.4 µM (top of the series) unless noted; note: nearly all actives have a fitted effect of over 45% in size
Description: U.S. Tox21 Program National Center for Advancing Translational Sciences [NCATS] NIH Chemical Genomics Center [NCGC] U.S. Environmental Protection Agency [EPA] National Institutes of Environmental Health Sciences [NIEHS] National Toxicology Program [NTP] U.S. Food and Drug Administration [FDA] Tox21 Assay Overview: The constitutive androstane receptor (CAR) is a nuclear receptor which regulates multiple drug metabolizing enzymes (DMEs) and transporters. Activating CAR will generally increase the transcription and subsequent translation of CYP2B6 and CYP3A4. These two DMEs represent about 50% of the drug metabolizing potential in the body. […] Recently, there have also been studies performed indicating CARs role in energy metabolism and cancer therapy. Therefore, inducing CARs activity could have a potential effect on diabetes and cancer. Identifying environmental toxins and compounds which modulate CAR, through the use of the Tox21 10K compound collection, will be an important step in determining the toxicity and potential therapeutic effects these factors will have on the human body. To differentiate true CAR agonists from cytotoxic substances, the assay is multiplexed with a cell viability assay.
Tox21 Assay Protocol Summary: A double-stable (hCAR and CYP2B6-2.2kb) transfected cell line, derived from human hepatoma (HepG2) cells, was utilized for the duration of the quantitative high-throughput screens. The HepG2-CYP2B6-hCAR cells were dispensed at 2500 cells/4 uL/well in 1536-well white solid bottom plates using a Multidrop Combi. After the assay plates were incubated at 37 C/5% CO2 for 4 hrs, 23 nL of compounds at 15 concentrations (from 5-48 columns) or positive control (from 1 to 4 columns) were transferred to the assay plates using a Pintool station. One uL of PK11195 (final concentration = 0.75 uM) was added, using a Flying Reagent Dispenser, inside each well. After a 23 hr incubation period at 37 C/5% CO2, 1 uL of CellTiter-Fluor reagent was added into each well of the assay plates using a Flying Reagent Dispenser. The fluorescence intensity in the plates was then measured using a ViewLux plate reader.

[5] = qHTS assay to identify small molecule antagonists of the constitutive androstane receptor (CAR) signaling pathway - cell viability counter screen (AID 1224837); settings: HepG2-CYP2B6-hCAR viability, CellTiter-Fluor, 23 h, co-treated with 50 nM CITCO; at 92.4 µM (top of the series) unless noted; note: nearly all actives have a fitted effect of over 45% in size
Method in brief: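 Viability was measured with CellTiter-Fluor in a HepG2 line carrying stably transfected hCAR and a CYP2B6-2.2kb construct. Cells were exposed for 23 hr at 37 C to 15 compound concentrations with 50 nM CITCO as agonist.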

[6] = target: Nuclear receptor subfamily 1 group I member 3 (Homo sapiens) (UniProt Q14994); assay: qHTS assay to identify small molecule antagonists of the constitutive androstane receptor (CAR) signaling pathway (AID 1224838); settings: HepG2-CYP2B6-hCAR luciferase, CITCO-stimulated, 24 h; at 92.4 µM (top of the series) unless noted;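 note: HepG2 cells stably expressing hCAR with CYP2B6 luciferase reporter stimulated by CITCO; nearly all actives have a fitted effect of over 40% in size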
[7] = target: Nuclear receptor subfamily 1 group I member 3 (Homo sapiens) (UniProt Q14994); assay: qHTS assay to identify small molecule agonists of the constitutive androstane receptor (CAR) signaling pathway (AID 1224839); settings: HepG2 hCAR CYP2B6-luciferase, agonist mode, 24 h; at 92.4 µM (top of the series) unless noted;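 note: HepG2 cells stably carrying human CAR and a CYP2B6 luciferase reporter; nearly all actives have a fitted effect of over 15% in size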
[8] = qHTS assay to identify small molecule antagonists of the estrogen related receptor signaling pathway with the pleiotropic PPARgamma coactivator (PGC) from Tox21 10K library - cell viability counter screen (AID 1224840; active = well fitted cell-killing curve with a large enough effect in the repeat runs, not every such curve was filed as active; note: nearly all actives have a fitted effect of over 40% in size); settings: PGC/ERR reporter cells viability, CellTiter-Fluor, 17.5 h; at 92.4 µM (top of the series) unless noted
Method in brief: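 Multiplexed viability counter screen in the PGC/ERR cell line: cells treated with DMSO-dissolved compounds for 17.5 hours at 37 C, then viability measured as CellTiter-Fluor fluorescence.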

[9] = qHTS assay to identify small molecule agonists of the estrogen related receptor signaling pathway with the pleiotropic PPARgamma coactivator (PGC) from Tox21 10K library (AID 1224842); settings: PGC/ERR reporter cell line, luciferase ONE-Glo, 18 h; at 92.4 µM (top of the series) unless noted; note: nearly all actives have a fitted effect of over 15% in size
Description: National Center for Advancing Translational Sciences [NCATS] NIH Chemical Genomics Center [NCGC] U.S. Environmental Protection Agency [EPA] National Institutes of Environmental Health Sciences [NIEHS] National Toxicology Program [NTP] Assay overview: Estrogen related receptors (ERRs), the first orphan nuclear receptors discovered, play an important role in the control of cellular energy metabolism. ERRs are required for high-energy production in response to the environmental challenges. The pleiotropic PPARgamma coactivator (PGC) is a major partner of ERR and a key regulator in energy homeostasis. Together they have been implicated in the etiology of metabolic disorders such as Type 2 diabetes and metabolic syndrome. ERR-alpha was also identified as an adverse marker for breast cancer progression; ERR-alpha-positive tumors have a poor prognosis. To screen and to identify environmental compounds that perturb the PGC/ERR signaling pathways could provide valuable information for potential therapeutic or preventive measures in the treatment of metabolic disease. For identifying PGC/ERR agonists, PGC/ERR cell line (provided by NTP) has been used to screen Tox21 10K library.
Assay Protocol Summary: The PGC/ERR cells were dispensed at 2,000 cells/5 ul/well in 1536-well white plates using a Multidrop dispenser. After the assay plates were incubated at a 37 C/5% CO2 incubator for 6 hours, 23 nL of compounds dissolved in DMSO, positive and negative controls or DMSO only was transferred to the assay plate by a pin tool. The plates were incubated at 37 C for 18 hours. 4 ul/well of One-Glo reagent was added into the assay plates using a Flying Reagent Dispenser. After 30-minute incubation at room temperature, the luminescence intensity in the plates was measured using a ViewLux plate reader.

[10] = qHTS assay to identify small molecule antagonists of the estrogen related receptor signaling pathway with the pleiotropic PPARgamma coactivator (PGC) from Tox21 10K library (AID 1224841; call rule not given here; note: actives are mostly falling curves and most rising ones were filed inactive; nearly all actives have a fitted effect of over 50% in size; note: potency is the fitted concentration of half-maximal effect); settings: PGC/ERR reporter cell line, ONE-Glo luciferase, 18 h; series mostly up to 92.4 µM
% is set by controls: 0 for no effect and ±100 for the full control effect.

ClCCOP(OCCCl)OCCCl
inactive: activation ([1]; at 73.3 µM (top of the series)) -1.86% | activation ([1]; at 94.8 µM (top of the series)) -0.0191% | viability change, negative = cytotoxic [2] -0.941% | activity change, negative = inhibition [3] 0.677% and 3.31% | viability change, negative = cytotoxic [4] 1.77% and 0.487% | activity change, negative = cytotoxicity [5] 2% and 7.27% | activity, negative = inhibition [6] 28.4% and -0.0475% | activation [7] 1.32% and -0.264% | viability change, negative = cytotoxic [8] 1.19% and -1.91% | activation [9] -4.53% and -8.2%

CCOC(=O)N1CCC(=O)CC1
inactive: activation ([1]; at 73.3 µM (top of the series)) 0.33% | viability change, negative = cytotoxic [2] 2.67% [at 42.5 µM] | activity change, negative = inhibition [3] -0.195% [at 52.9 µM] | viability change, negative = cytotoxic [4] 5.64% [at 42.5 µM] | activity change, negative = cytotoxicity [5] 2.05% [at 42.5 µM] | activity, negative = inhibition [6] -13.7% [at 42.5 µM] | activation [7] 0.0974% [at 42.5 µM] | viability change, negative = cytotoxic [8] -1.79% [at 42.5 µM] | Potency [10] | activation [9] -0.692% [at 42.5 µM]

CCC(=O)N(c1ccccc1)C1CCNCC1
inactive: activation ([1]; at 73.3 µM (top of the series)) -3.14% | viability change, negative = cytotoxic [2] 0.195% [at 42.5 µM] | activity change, negative = inhibition [3] -3.71% [at 52.9 µM] | viability change, negative = cytotoxic [4] -13.1% [at 42.5 µM] | activity change, negative = cytotoxicity [5] -14.9% [at 42.5 µM] | viability change, negative = cytotoxic [8] -3.28% [at 42.5 µM] | Potency [10] | activation [9] 0.0458% [at 42.5 µM]

ClCCNCCCl
inactive: activity change, negative = inhibition [3] 0.138% | viability change, negative = cytotoxic [4] 0.942% | activity change, negative = cytotoxicity [5] 2.07% | activity, negative = inhibition [6] -17.7% | activation [7] 1.45% | viability change, negative = cytotoxic [8] 5.62% | activation [9] -6.93%

O=[N+]([O-])c1ccccc1[N+](=O)[O-]
inactive: activation ([1]; at 73.3 µM (top of the series)) 2.88% | activation ([1]; at 94.8 µM (top of the series)) 1.76% | viability change, negative = cytotoxic [2] -9.56% | activity, negative = inhibition [6] -29.1% and -61.2% | viability change, negative = cytotoxic [8] -14.2% and -18.2% | activation [9] -18.4% and -8.16%
35.3 µM (active) and inactive: Potency [10]

CCOP(=S)(Cl)OCC
inactive: viability change, negative = cytotoxic [2] 1.08% | viability change, negative = cytotoxic [4] 1.84% | activity change, negative = cytotoxicity [5] 0.0766% | activity, negative = inhibition [6] 1.02% | activation [7] 0.903% | viability change, negative = cytotoxic [8] 0.865% | Potency [10] | activation [9] 0.36%

CC(C)OP(OC(C)C)OC(C)C
inactive: viability change, negative = cytotoxic [2] 1.6% | activity change, negative = inhibition [3] 1.64% | viability change, negative = cytotoxic [4] 2.76% | activity change, negative = cytotoxicity [5] 0.58% | activity, negative = inhibition [6] -2.57% | activation [7] 0.133% | viability change, negative = cytotoxic [8] 4.7% | Potency [10] | activation [9] 5.71%

CCOP(=O)(Cl)Cl
inactive: activation ([1]; at 73.3 µM (top of the series)) -4.02% and -1.72% | viability change, negative = cytotoxic [2] -1.28% and 3.6% | activity change, negative = inhibition [3] -5.69% and 0.548% | viability change, negative = cytotoxic [4] 4.59% and 3.68% | activity change, negative = cytotoxicity [5] 8.46% and 1.13% | activity, negative = inhibition [6] 8.96% and -2.79% | activation [7] 3.86% and -0.874% | viability change, negative = cytotoxic [8] -0.451% and 0.346% | Potency [10] | activation [9] 3.24% and -4.15%
